B1: Ketohexokinase (Homo sapiens), P50053-2 (parent)
chain: MEEKQILCVGLVVLDVISLVDKYPKEDSEIRCLSQRWQRGGNASNSCTVLSLLGAPCAFMGSMAPGHVADFVLDDLRRYSVDLRYTVFQTTGSVPIATVIINEASGSRTILYYDRSLPDVSATDFEKVDLTQFKWIHIEGRNASEQVKMLQRIDAHNTRQPPEQKIRVSVEVEKPREELFQLFGYGDVVFVSKDVAKHLGFQSAEEALRGLYGRVRKGAVLVCAWAEEGADALGPDGKLLHSDAFPPPRVVDTLGAGDTFNASVIFSLSQGRSVQEALRFGCQVAGKKCGLQGFDGIV

Variants of: B1
Details: with p60891-1 PRPS1, P60891-1

Row | Variant | effect of a mutation on the interaction
1 | L83A | disrupting interaction strength

— IntAct's records for PubMed 27088854
